# From patent US20140294856A1, “COMBINATION TREATMENT COMPRISING A HDAC6 INHIBITOR AND AN AKT INHIBITOR” (priority 2011, published 2014)
# By UniProt entry, the sequences of proteins in these tests, tags left out. Where a name states a change or a piece, a line headed by the entry shows the natural chain unless it says otherwise.
# UniProt Q9UNQ0: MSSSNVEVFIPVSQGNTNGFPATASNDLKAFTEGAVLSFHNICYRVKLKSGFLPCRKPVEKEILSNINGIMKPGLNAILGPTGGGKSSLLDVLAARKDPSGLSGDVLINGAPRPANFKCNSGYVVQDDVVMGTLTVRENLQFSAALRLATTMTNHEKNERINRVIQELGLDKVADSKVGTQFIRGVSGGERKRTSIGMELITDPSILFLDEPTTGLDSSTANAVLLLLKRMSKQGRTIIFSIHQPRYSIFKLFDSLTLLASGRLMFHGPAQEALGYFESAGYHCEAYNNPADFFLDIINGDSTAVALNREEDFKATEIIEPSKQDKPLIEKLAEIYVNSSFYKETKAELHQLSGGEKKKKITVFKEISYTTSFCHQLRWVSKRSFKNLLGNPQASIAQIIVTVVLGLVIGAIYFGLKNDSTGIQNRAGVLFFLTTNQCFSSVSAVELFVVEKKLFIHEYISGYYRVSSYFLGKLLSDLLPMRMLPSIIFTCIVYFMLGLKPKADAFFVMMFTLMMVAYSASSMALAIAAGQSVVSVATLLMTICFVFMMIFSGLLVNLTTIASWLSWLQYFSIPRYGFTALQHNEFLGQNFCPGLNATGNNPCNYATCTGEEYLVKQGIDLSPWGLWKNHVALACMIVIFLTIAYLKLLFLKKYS
# Biological target: ABCG2 (Homo sapiens, UniProt Q9UNQ0)
smiles,measurement,value
"O=C(CCCCCCC(=O)Nc1ccccc1)NO [SAHA, suberanoyl hydroxamic acid]",reversal of resistance by FTC in MCF7-MX cells,3.9 fold
